In patent publication US10081623B2, “Diamide macrocycles that are FXIa inhibitors” (BRISTOL-MYERS SQUIBB COMPANY, priority 2014, dated 2018) one finds Ki data, which are given here for 14 molecules.

Chains of the proteins cited; added tags and fusions are not shown. Residues count along the entry.
UniProt P03951, 19-387 partner: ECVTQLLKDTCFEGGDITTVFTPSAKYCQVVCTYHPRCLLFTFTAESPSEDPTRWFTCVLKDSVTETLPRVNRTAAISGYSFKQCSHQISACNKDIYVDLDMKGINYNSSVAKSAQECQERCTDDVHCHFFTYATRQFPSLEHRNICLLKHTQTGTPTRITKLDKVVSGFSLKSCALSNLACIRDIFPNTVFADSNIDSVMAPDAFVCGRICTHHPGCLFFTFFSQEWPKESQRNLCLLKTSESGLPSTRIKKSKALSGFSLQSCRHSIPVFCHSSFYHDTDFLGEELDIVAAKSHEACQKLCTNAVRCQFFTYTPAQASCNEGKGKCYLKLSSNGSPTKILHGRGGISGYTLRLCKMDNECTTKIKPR
UniProt P03951, 388-625: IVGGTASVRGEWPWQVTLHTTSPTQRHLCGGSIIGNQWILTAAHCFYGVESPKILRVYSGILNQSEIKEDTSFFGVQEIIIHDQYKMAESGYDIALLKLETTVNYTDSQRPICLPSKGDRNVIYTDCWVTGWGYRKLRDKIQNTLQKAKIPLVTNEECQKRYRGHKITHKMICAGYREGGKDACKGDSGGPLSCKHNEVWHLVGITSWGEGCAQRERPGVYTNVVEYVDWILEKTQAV

For orientation: Ki means the dissociation constant of the complex between target and ligand, obtained from inhibition or displacement. Lower therefore signals tighter binding.

The target in the assay is purified human Factor XIa (Homo sapiens (Human), UniProt P03951). As to the kind of experiment: Factor XIa assay (chromogenic substrate S-2366 hydrolysis, Ki). The assay is classed as biochemical. The note with it: measured at 37° C. As to the method:
The effectiveness of compounds of the present invention as inhibitors of the coagulation Factors XIa, VIIa, IXa, Xa, XIIa, plasma kallikrein or thrombin, can be determined using a relevant purified serine protease, respectively, and an appropriate synthetic substrate. The rate of hydrolysis of the chromogenic or fluorogenic substrate by the relevant serine protease was measured both in the absence and presence of compounds of the present invention. […] A decrease in the rate of absorbance or fluorescence change in the presence of inhibitor is indicative of enzyme inhibition. Such methods are known to one skilled in the art. The results of this assay are expressed as the inhibitory constant, Ki.
Factor XIa determinations were made in 50 mM HEPES buffer at pH 7.4 containing 145 mM NaCl, 5 mM KCl, and 0.1% PEG 8000 (polyethylene glycol; JT Baker or Fisher Scientific). Determinations were made using purified human Factor XIa at a final concentration of 25-200 pM (Haematologic Technologies) and the synthetic substrate S-2366 (pyroGlu-Pro-Arg-pNA; CHROMOGENIX® or AnaSpec) at a concentration of 0.0002-0.001 M.
The Michaelis constant, Km, for substrate hydrolysis by each protease, was determined at 25° C. or 37° C. in the absence of inhibitor. Values of Ki were determined by allowing the protease to react with the substrate in the presence of the inhibitor. Reactions were allowed to go for periods of 20-180 minutes (depending on the protease) and the velocities (rate of absorbance or fluorescence change versus time) were measured. The following relationships were used to calculate Ki values: (Vmax*S)/(Km+S); (vo−vs)/vs=I/(Ki(1+S/Km)) for a competitive inhibitor with one binding site; or vs/vo=A+(B−A)/(1+(I/IC50)^n); and Ki=IC50/(1+S/Km) for a competitive inhibitor where: […]
`COC(=O)Nc1ccc2c(c1)NC(=O)CC(C)/C=C/CC(C(=O)NCCc1cc(Cl)ccc1-n1cnnn1)NC2=O` (single isomer, unassigned) [Example 35, (E)-Methyl N-[8-({2-[5-chloro-2-(1H-1,2,3,4-tetrazol-1-yl)phenyl]ethyl}carbamoyl)-4-methyl-2,10-dioxo-1,2,3,4,7,8,9,10-octahydro-1,9-benzodiazacyclododecin-13-yl]carbamate] showed an inhibition constant (Ki) of 0.216 µM. Molecule `COC(=O)Nc1ccc2c(c1)NC(=O)CCCCCC(C(=O)N1CCC(c3cccc(Cl)c3)C1)NC2=O` (racemic) [Example 9, (±)-Methyl N-{8-[3-(3-chlorophenyl)pyrrolidine-1-carbonyl]-2,10-dioxo-1,2,3,4,5,6,7,8,9,10-decahydro-1,9-benzodiazacyclododecin-13-yl}carbamate] registered an inhibitory constant (Ki) of 2.07 µM. Molecule `COC(=O)Nc1ccc2c(c1)NC(=O)C(C)CCCCC(C(=O)NCCc1cc(Cl)ccc1-n1cnnn1)NC2=O` (racemic) [Example 16, (±)-Methyl N-[8-({2-[5-chloro-2-(1H-1,2,3,4-tetrazol-1-yl)phenyl]ethyl}carbamoyl)-3-methyl-2,10-dioxo-1,2,3,4,5,6,7,8,9,10-decahydro-1,9-benzodiazacyclododecin-13-yl]carbamate] came in with an inhibition constant (Ki) of 0.0732 µM. Consider `COC(=O)Nc1ccc2c(c1)NC(=O)C(C)CCCCC(C(=O)NCCc1cc(Cl)ccc1-n1cnnn1)NC2=O` (single isomer, unassigned) [Example 19, Methyl N-[8-({2-[5-chloro-2-(1H-1,2,3,4-tetrazol-1-yl)phenyl]ethyl}carbamoyl)-3-methyl-2,10-dioxo-1,2,3,4,5,6,7,8,9,10-decahydro-1,9-benzodiazacyclododecin-13-yl]carbamate], for which the Ki amounted to 0.596 µM. `COC(=O)Nc1ccc2c(c1)NC(=O)C(C)CCCCC(C(=O)NCCc1cc(Cl)ccc1-n1cnnn1)NC2=O` (racemic) [Example 17, (±)-Methyl N-[8-({2-[5-chloro-2-(1H-1,2,3,4-tetrazol-1-yl)phenyl]ethyl}carbamoyl)-3-methyl-2,10-dioxo-1,2,3,4,5,6,7,8,9,10-decahydro-1,9-benzodiazacyclododecin-13-yl]carbamate] showed a Ki of 0.104 µM. Regarding `COC(=O)Nc1ccc2c(c1)NC(=O)CC(C)/C=C/CC(C(=O)NCCc1cc(Cl)ccc1-n1cnnn1)NC2=O` (single isomer, unassigned) [Example 34, (E)-Methyl N-[8-({2-[5-chloro-2-(1H-1,2,3,4-tetrazol-1-yl)phenyl]ethyl}carbamoyl)-4-methyl-2,10-dioxo-1,2,3,4,7,8,9,10-octahydro-1,9-benzodiazacyclododecin-13-yl]carbamate], the inhibitory constant (Ki) was less than 0.005 µM. In turn, `COC(=O)Nc1ccc2c(c1)NC(=O)CC(C)CCCC(C(=O)NCCc1cc(Cl)ccc1-n1cnnn1)NC2=O` (racemic) [Example 11, (±)-Methyl N-[8-({2-[5-chloro-2-(1H-1,2,3,4-tetrazol-1-yl)phenyl]ethyl}carbamoyl)-4-methyl-2,10-dioxo-1,2,3,4,5,6,7,8,9,10-decahydro-1,9-benzodiazacyclododecin-13-yl]carbamate] gave an inhibition constant (Ki) of 0.0736 µM. That is a double-digit nanomolar value.

Regarding `COC(=O)Nc1ccc2c(c1)NC(=O)CC(C)CCCC(C(=O)NCCc1cc(Cl)ccc1-n1cnnn1)NC2=O` (single isomer, unassigned) [Example 13, Methyl N-[8-({2-[5-chloro-2-(1H-1,2,3,4-tetrazol-1-yl)phenyl]ethyl}carbamoyl)-4-methyl-2,10-dioxo-1,2,3,4,5,6,7,8,9,10-decahydro-1,9-benzodiazacyclododecin-13-yl]carbamate], the Ki came out at 0.0343 µM. With `COC(=O)Nc1ccc2c(c1)NC(=O)C(C)CCCCC(C(=O)NCCc1cc(Cl)ccc1-n1cnnn1)NC2=O` (single isomer, unassigned) [Example 18, Methyl N-[8-({2-[5-chloro-2-(1H-1,2,3,4-tetrazol-1-yl)phenyl]ethyl}carbamoyl)-3-methyl-2,10-dioxo-1,2,3,4,5,6,7,8,9,10-decahydro-1,9-benzodiazacyclododecin-13-yl]carbamate], the Ki came to 0.0543 µM.

The molecule `COC(=O)Nc1ccc2c(c1)NC(=O)CC(C)/C=C\CC(C(=O)NCCc1cc(Cl)ccc1-n1cnnn1)NC2=O` (racemic) [Example 32, (Z)-(±)-Methyl N-[8-({2-[5-chloro-2-(1H-1,2,3,4-tetrazol-1-yl)phenyl]ethyl}carbamoyl)-4-methyl-2,10-dioxo-1,2,3,4,7,8,9,10-octahydro-1,9-benzodiazacyclododecin-13-yl]carbamate] yielded an inhibitory constant (Ki) of 0.0174 µM. This Ki is about 3.1-fold lower than that of the molecule before. In the case of `COC(=O)Nc1ccc2c(c1)NC(=O)CC(C)CCCC(C(=O)NCCc1cc(Cl)ccc1-n1cnnn1)NC2=O` (single isomer, unassigned) [Example 12, Methyl N-[8-({2-[5-chloro-2-(1H-1,2,3,4-tetrazol-1-yl)phenyl]ethyl}carbamoyl)-4-methyl-2,10-dioxo-1,2,3,4,5,6,7,8,9,10-decahydro-1,9-benzodiazacyclododecin-13-yl]carbamate], the Ki was 0.0818 µM. Molecule `O=C1CCCCCC(C(=O)NCCc2cc(Cl)ccc2-n2cnnn2)NC(=O)c2ccccc2N1` (racemic) [Example 28, (±)-N-{2-[5-Chloro-2-(1H-1,2,3,4-tetrazol-1-yl)phenyl]ethyl}-2,10-dioxo-1,2,3,4,5,6,7,8,9,10-decahydro-1,9-benzodiazacyclododecine-8-carboxamide] yielded a Ki of 0.338 µM. Consider `COC(=O)Nc1ccc2c(c1)NC(=O)CC(C)CCCC(C(=O)NCCc1cc(Cl)ccc1-n1cnnn1)NC2=O` (single isomer, unassigned) [Example 14, Methyl N-[8-({2-[5-chloro-2-(1H-1,2,3,4-tetrazol-1-yl)phenyl]ethyl}carbamoyl)-4-methyl-2,10-dioxo-1,2,3,4,5,6,7,8,9,10-decahydro-1,9-benzodiazacyclododecin-13-yl]carbamate], for which the Ki amounted to 0.336 µM. For `COC(=O)Nc1ccc2c(c1)NC(=O)C(C)CCCCC(C(=O)NCCc1cc(Cl)ccc1-n1cnnn1)NC2=O` (single isomer, unassigned) [Example 21, Methyl N-[8-({2-[5-chloro-2-(1H-1,2,3,4-tetrazol-1-yl)phenyl]ethyl}carbamoyl)-3-methyl-2,10-dioxo-1,2,3,4,5,6,7,8,9,10-decahydro-1,9-benzodiazacyclododecin-13-yl]carbamate], the inhibitory constant (Ki) turned out to be 0.0141 µM.
